Source: patent US7335676B2, “Methods for treating inflammatory conditions or inhibiting JNK” (Signal Pharmaceuticals, LLC, priority 1999, dated 2008)

Amino acid sequences for entries named in this document (tags omitted).
UniProt P53779, whole entry, species assumed: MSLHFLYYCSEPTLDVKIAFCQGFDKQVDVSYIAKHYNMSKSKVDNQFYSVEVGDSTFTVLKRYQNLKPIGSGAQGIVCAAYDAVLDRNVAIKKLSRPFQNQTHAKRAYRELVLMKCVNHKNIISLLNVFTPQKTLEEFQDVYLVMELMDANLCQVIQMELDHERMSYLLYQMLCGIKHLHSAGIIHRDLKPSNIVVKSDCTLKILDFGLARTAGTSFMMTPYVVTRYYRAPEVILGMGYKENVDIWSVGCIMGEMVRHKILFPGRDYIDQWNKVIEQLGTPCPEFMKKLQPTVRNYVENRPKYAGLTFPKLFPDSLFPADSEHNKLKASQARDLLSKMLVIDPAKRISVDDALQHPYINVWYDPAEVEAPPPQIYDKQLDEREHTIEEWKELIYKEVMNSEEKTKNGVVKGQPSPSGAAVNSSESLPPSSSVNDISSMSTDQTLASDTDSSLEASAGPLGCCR

Biological target: JNK3 (Homo sapiens, UniProt P53779)
Assay: JNK Assay (c-Jun phosphorylation), JNK3
Format: biochemical
Details: c-Jun phosphorylation reduced to 50% of control; 11 μM ATP
Protocol: To 10 μL of the test compound in 20% DMSO/80% dilution buffer consisting of 20 mM HEPES (pH 7.6), 0.1 mM EDTA, 2.5 mM magnesium chloride, 0.004% Triton×100, 2 μg/mL leupeptin, 20 mM β-glycerolphosphate, 0.1 mM sodium vanadate, and 2 mM DTT in water is added 30 μL of 50-200 ng His6-JNK1, JNK2 or JNK3 in the same dilution buffer. The mixture is preincubated for 30 minutes at room temperature. Sixty microliter of 10 μg GST-c-Jun(1·79) in assay buffer consisting of 20 mM HEPES (pH 7.6), 50 mM sodium chloride, 0.1 mM EDTA, 24 mM magnesium chloride, 1 mM DTT, 25 mM PNPP, 0.05% Triton×100, 11 μM ATP, and 0.5 μCi γ-32P ATP in water is added and the reaction is allowed to proceed for 1 hour at room temperature. The c-Jun phosphorylation is terminated by addition of 150 μL of 12.5% trichloroacetic acid. After 30 minutes, the precipitate is harvested onto a filter plate, diluted with 50 μL of the scintillation fluid and quantified by a counter. The IC50 values are calculated as the concentration of the test compound at which the c-Jun phosphorylation is reduced to 50% of the control value.

## O=C1c2ccccc2-c2n[nH]c3cccc1c23 [Compound 1, Anthra[1,9cd]pyrazol-6(2H)-one]
  IC50: 150 nM
